A short description of the data set: Multiple ascending dose study, safety and tolerability. The settings on record: 0.5-5.0 mg, twelve days.

Each structure is given as a SMILES string.

For the compound `CC(C)(O)c1cnn2c(-c3ccc(F)c(-c4c(F)cccc4C#N)c3)cnc2n1` [Compound 1, 2′,6-difluoro-5′-(3-(2-hydroxypropan-2-yl)imidazo[1,2-b][1,2,4]triazin-7-yl)-[1,1′-biphenyl]-2-carbonitrile], the “deaths, SAEs, or TEAEs leading to discontinuation” value was “No deaths, SAEs, or TEAEs leading to discontinuation”.
